# Data taken from PubChem BioAssay AID2366 (The Scripps Research Institute Molecular Screening Center, 2010).
# The list shows a part of the results, in another mix than the full data. Calls of active or inactive are those of the source.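 How the source made its calls: active means compounds picked for the later follow-up tests because of their potency and selectivity; inactive means compounds skipped in follow-up as weaker or less selective.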
# Assay: endogenous PME-1 and serine hydrolase inhibition – cell lysate, mouse brain cytosol, FP-rhodamine, gel ABPP, selectivity assay for PME-1 inhibitor project, dose response (AID 2366)
# Settings: gel-based ABPP
compound,measurement,value
N#C/C(=C\c1cccn1S(=O)(=O)c1ccccc1)S(=O)(=O)c1ccc(F)cc1,IC50,inactive: > 50 µM
